What all share (assay): SPR
(In SPR one partner is held on a chip, and binding of the other changes the refractive index at the surface.)

Protein sequences, listed by entry. Tags and fused reporters are not part of them. Residues count along the entry.
UniProt P35613, 138-325: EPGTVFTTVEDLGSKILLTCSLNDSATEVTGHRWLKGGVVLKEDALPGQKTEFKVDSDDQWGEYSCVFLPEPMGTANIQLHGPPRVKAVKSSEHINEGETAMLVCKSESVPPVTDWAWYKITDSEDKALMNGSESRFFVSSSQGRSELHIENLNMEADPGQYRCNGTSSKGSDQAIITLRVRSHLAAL

Test [1] deals with P113 Y1-N653, biotinylated SPR ligand (P. falciparum (3D7 strain)).
Test [2] addresses P113 entire ectodomain, AVEXIS bait or prey and biotinylated SPR ligand (P. falciparum (3D7 strain)).
Test [3] concerns the target Basigin ectodomain, AVEXIS bait or prey and biotinylated SPR ligand (human) (UniProt P35613).
The target in test [4] is P113 Y1-K197, biotinylated SPR ligand (P. falciparum (3D7 strain)).

For orientation: koff means the rate constant with which the complex falls apart. High values mean a short-lived complex, low ones a long-lived complex. Broadly, the kon is a measure of how fast the partners come together. A low value points to slow association. For “RH5FL, purified monomeric SPR analyte (from UniProt Q8IFM5 25-526) (natural protein)”, the koff amounted to 0.412 s⁻¹ in test [1], 0.231 s⁻¹ in test [2], 0.244 s⁻¹ in test [3] and 0.307 s⁻¹ in test [4]. Also, the kon in test [1] was found to be 753000 M⁻¹ s⁻¹; in test [2] it was 780000 M⁻¹ s⁻¹; in test [3] it was 182000 M⁻¹ s⁻¹; in test [4], 284000 M⁻¹ s⁻¹.

(Values after paper PMC5309799.)
